Chains of the proteins cited; added tags and fusions are not shown. Residues count along the entry.
UniProt P04629, 33-796: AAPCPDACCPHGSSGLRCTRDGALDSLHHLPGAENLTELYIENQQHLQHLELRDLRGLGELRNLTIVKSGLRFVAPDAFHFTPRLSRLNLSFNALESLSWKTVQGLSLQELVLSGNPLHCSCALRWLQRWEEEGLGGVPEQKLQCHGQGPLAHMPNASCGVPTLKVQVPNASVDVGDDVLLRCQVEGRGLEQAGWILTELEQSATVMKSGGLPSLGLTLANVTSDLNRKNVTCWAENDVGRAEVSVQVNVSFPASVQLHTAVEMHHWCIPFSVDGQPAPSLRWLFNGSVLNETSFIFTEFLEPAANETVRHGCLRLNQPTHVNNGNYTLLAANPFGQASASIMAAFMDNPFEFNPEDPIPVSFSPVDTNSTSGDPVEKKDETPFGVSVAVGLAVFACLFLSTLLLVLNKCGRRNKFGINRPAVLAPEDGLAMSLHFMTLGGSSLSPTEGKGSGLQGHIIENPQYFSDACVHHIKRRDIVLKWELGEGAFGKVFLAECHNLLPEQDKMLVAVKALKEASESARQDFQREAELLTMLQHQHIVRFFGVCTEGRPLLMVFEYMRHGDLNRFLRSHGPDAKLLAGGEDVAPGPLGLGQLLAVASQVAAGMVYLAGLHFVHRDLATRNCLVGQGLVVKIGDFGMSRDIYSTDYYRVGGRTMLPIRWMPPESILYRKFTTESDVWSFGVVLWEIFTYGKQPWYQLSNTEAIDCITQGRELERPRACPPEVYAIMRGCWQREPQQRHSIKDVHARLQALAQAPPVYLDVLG

According to US9862716B2, “TRKA kinase inhibitors, compositions and methods thereof” (Merck Sharp & Dohme Corp., priority 2014, dated 2018):

Target: T1, human TrkA receptor (Homo sapiens, UniProt P04629)
T1 construct: host or cells: U2OS cells (PathHunter cell line)
Test: DiscoverX PathHunter TrkA functional assay (NGF-stimulated U2OS cells)
Assay type: cell-based
Settings: U2OS cells expressing human TrkA-PK, Shc1-EA and p75NTR; compound 1 h, then NGF at ~80% of maximal response for 3 h; luminescence
Method: TrkA functional activity was measured using a DiscoverX PathHunter assay. In this assay, U2OS cells express the human TrkA receptor as a fusion with the weakly complementing fragment of B-galactosidase, which DiscoverX calls “Prolink (PK)”; additionally, Shc1 is fused with a larger fragment, which is called “Enzyme Acceptor (EA)”. Activation of the TrkA receptor, upon NGF addition, results in the kinase domain being phosphorylated, resulting in subsequent recruitment of Shc1-EA protein. That recruitment results in an active B-galactosidase enzyme that is detected by addition of a chemiluminescent substrate. The human p75^NTR protein was also expressed as a co-receptor for NGF.
All reagents were purchased from DiscoverX, except for the receptor agonists (NGF, BDNF, NT3) which were purchased from Peprotech. Cells were expanded and frozen into cryovials, and stored in the vapor phase of liquid nitrogen, and thawed immediately before use. Thawed cells were added to a 384-well plate at 7500 cells/well, and allowed to incubate overnight. Compound at various concentrations was added the following morning and allowed to incubate on cells for 1 h. Then, NGF was added at a concentration sufficient to elicit ˜80% of a maximal response and allowed to incubate for 3 h at ambient temperature. […] The plate was then read via luminescence on the Perkin Elmer Envision.

Row | IC50 [nM] | SMILES
1 | 4.6 | CC(O)c1ccn2c(NC(=O)c3ccc(C(F)(F)F)c(-c4ncccn4)c3)c(-c3ccccc3)nc2c1 (single isomer, unassigned) [Compound 68, (R or S)-N-[7-(1-hydroxyethyl)-2-phenylimidazo[1,2-a]pyridin-3-yl]-3-pyrimidin-2-yl-4-(trifluoromethyl) benzamide]
2 | 4.6 | Cn1ccc(-c2cc(C(=O)Nc3c(-c4ccccc4)nc4cc(CNC(=O)C5(O)CC5)ccn34)ccc2C(F)(F)F)n1 [Compound 82, N-[7-({[(1-hydroxycyclopropyl)carbonyl]amino}methyl)-2-phenylimidazo[1,2-a]pyridin-3-yl]-3-(1-methyl-1H-pyrazol-3-yl)-4-(trifluoromethyl) benzamide]
